Data on one substance can be found in PMC3772642 (Nature, 2009).

By UniProt entry, the sequences of proteins in these tests, tags left out.
UniProt O75530, whole entry: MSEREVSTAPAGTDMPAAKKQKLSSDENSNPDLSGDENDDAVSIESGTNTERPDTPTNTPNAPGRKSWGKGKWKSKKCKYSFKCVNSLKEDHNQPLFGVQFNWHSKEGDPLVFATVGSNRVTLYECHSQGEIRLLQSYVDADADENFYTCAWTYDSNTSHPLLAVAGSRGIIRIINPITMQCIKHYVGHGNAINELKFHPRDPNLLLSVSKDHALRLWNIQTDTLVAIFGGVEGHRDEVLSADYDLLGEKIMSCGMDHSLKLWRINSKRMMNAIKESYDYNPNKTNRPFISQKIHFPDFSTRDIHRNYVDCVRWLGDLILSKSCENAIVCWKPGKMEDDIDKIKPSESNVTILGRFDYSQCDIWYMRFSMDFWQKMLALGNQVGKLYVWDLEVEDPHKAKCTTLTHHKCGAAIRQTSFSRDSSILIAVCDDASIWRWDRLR

The target in the test is PRC2-Ezh2 (Homo sapiens, UniProt O75530). Briefly: HKMT assay, stimulation of PRC2-Ezh2 by histone peptides. The note with it: read-out: half maximum stimulation of PRC2 activity; H3K27me3 peptide, Fig. S7. The format is biochemical.

pEC50: −log10 of the molar value.

As to “H3K27me3: synthetic histone H3 peptide trimethylated on lysine 27 (TKAARKSAPAT; trimethyl-Lys27 of mature H3)”, the pEC50 is 4.40 to 4.52.
